Values of other authors as cited in US11338162B2 (priority 2013, dated 2022).

What was measured:
[1] = test system: Emerald Shiner (Notropis atherinoides); settings: in vivo
[2] = test system: Daphnia magna (Water flea); settings: in vivo
[3] = test system: rat; settings: in vivo
[4] = test system: rabbit; settings: in vivo, topical or ocular
[5] = test system: Fathead Minnow (Pimephales promelas); settings: in vivo

For poly(ethyleneglycol) [PEG (200)], which “Toxicity to fish LC50” value [1] is on record?
The value was greater than 100 µg/mL.

What about the “Toxicity to daphnia and other aquatic invertebrates LC50 - Daphnia magna (Water flea)” value [2] of the same substance?
The value was >10,000 mg/l.

And the “LD50 Oral - rat” value [3]?
Its value is 30,200 mg/kg.

What about the “LD50 Dermal - rabbit” value [4] of the same substance?
The value was >20,000 mg/kg.

And the “Toxicity to fish LC50” value [5]?
The value was >10,000 mg/l.
